Results reported in US6656911B2, “Serine protease inhibitors” (Cortech, Inc., priority 1994, dated 2003).

Molecular target: T1, human neutrophil elastase (HNE) (Homo sapiens, UniProt P08246)
T1 sequence (P08246 30-267): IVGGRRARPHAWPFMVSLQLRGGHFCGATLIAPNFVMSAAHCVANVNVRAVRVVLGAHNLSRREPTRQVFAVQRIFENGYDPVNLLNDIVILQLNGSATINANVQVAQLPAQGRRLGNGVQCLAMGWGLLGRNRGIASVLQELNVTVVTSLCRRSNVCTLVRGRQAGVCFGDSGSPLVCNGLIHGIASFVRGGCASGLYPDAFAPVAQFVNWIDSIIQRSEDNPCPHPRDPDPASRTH
Test: HNE Ki of CE compounds, tested as described in WO 96/16080
Assay type: biochemical

Ki: 76 nM
Substance: 3-[(4-Morpholino)aceto]amino-quinoline-2-one-N-[1-(2-[5-(3-methylbenzyl)-1,3,4-oxadiazolyl]carbonyl)-2-(S)-methylpropyl]acetamide [CE2116]
